Test results taken from patent US9447092B2, “Pharmaceutically active compounds” (CANCER RESEARCH TECHNOLOGY LIMITED, priority 2012, dated 2016).

Chains of the proteins cited; added tags and fusions are not shown.
UniProt P10635, whole entry: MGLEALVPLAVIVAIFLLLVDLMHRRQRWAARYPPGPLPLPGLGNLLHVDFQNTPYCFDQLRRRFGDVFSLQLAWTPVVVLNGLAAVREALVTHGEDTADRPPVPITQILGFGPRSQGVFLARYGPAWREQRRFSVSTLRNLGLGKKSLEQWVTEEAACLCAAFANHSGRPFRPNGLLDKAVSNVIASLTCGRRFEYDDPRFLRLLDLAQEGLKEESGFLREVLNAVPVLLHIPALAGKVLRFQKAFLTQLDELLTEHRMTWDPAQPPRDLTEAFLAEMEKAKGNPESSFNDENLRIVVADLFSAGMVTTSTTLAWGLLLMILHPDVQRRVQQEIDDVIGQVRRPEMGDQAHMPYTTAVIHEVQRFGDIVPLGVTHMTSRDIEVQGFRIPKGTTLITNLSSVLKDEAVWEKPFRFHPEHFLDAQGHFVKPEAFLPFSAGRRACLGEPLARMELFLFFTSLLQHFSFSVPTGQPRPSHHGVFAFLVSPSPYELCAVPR
UniProt P11712, whole entry: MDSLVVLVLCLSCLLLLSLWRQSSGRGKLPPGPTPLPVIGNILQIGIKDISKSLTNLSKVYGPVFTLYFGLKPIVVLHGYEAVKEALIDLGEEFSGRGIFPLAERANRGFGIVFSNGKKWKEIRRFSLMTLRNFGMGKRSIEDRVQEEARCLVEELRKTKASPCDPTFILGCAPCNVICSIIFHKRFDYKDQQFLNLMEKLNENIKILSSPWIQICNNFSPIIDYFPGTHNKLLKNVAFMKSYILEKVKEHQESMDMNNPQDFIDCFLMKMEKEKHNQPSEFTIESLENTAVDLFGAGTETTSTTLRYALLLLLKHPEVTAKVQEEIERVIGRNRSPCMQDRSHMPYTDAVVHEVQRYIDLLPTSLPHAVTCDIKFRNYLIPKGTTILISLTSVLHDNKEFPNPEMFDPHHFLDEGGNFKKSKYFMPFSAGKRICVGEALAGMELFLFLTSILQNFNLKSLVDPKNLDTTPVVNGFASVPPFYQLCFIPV

Tests used:
CYP2D6 = CYP2D6 (Homo sapiens (Human), UniProt P10635); assay: Inhibition of CYP isozymes in human liver microsomes, CYP2D6
CYP2C9 = CYP2C9 (Homo sapiens (Human), UniProt P11712); assay: Inhibition of CYP isozymes in human liver microsomes, CYP2C9

| SMILES | IC50 (CYP2D6) | IC50 (CYP2C9) |
| --- | --- | --- |
| Cc1nc(CN2CCN(c3c(Cl)cnc4[nH]c(-c5cn(C)nc5C)nc34)CC2)no1 [Example 3, 3-((4-(6-Chloro-2-(1,3-dimethyl-1H-pyrazol-4-yl)-3H-imidazo[4,5-b]pyridin-7-yl)piperazin-1-yl)methyl)-5-methyl-1,2,4-oxadiazole] | 10 to 50 µM |  |
| Cc1nn(C)cc1-c1nc2c(N3CCN(Cc4ccc(Cl)cc4)CC3)c(Cl)cnc2[nH]1 [Example 1, 6-Chloro-7-(4-(4-chlorobenzyl)piperazin-1-yl)-2-(1,3-dimethyl-1H-pyrazol-4-yl)-3H-imidazo[4,5-b]pyridine] |  | 10 to 50 µM |
